ChEMBL document CHEMBL6087483, “Discovery of Potent, Highly Selective, and Orally Bioavailable MTA Cooperative PRMT5 Inhibitors with Robust In Vivo Antitumor Activity” (J Med Chem, 2025)

How the values were obtained:
[1] = Selectivity ratio of IC50 for antiproliferative activity against MTAP wild type human HCT-116 cells to IC50 for antiproliferative activity against MTAP deleted human HCT-116 cells; type: functional
[2] = Volume of distribution at steady state in male CD-1 mouse at 5 mg/kg, po or 1 mg/kg, iv measured upto 24 hrs; type: ADME, organism-based; conditions: in vivo

Vdss [2]: 1.45 L/kg
Compound: CN(C(=O)c1cc2c3c(c(N)nc2cc1F)COC3)[C@@H]1CCN(c2ccc(C#N)cc2)C1
Ratio IC50 [1]: 127
